## Apparent affinities of Ab-95 variants for a coronavirus HR2 peptide

Source: Engelhart et al. 2022 (doi:10.1038/s41597-022-01779-4), MIT Lincoln Laboratory and A-Alpha Bio; data file from the FLAb repository.

The target is the same throughout: PDVDLGDISGINAS, from the HR2 region of SARS-CoV-2 spike.

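The parent was found by panning a naive human phage display library on the peptide. Library AAYL52 holds single substitutions and randomly drawn double and triple substitutions in the CDRs. The scFvs were displayed on barcoded MATa yeast, the peptide on MATalpha yeast. Mating (16 h, 30 °C) was followed by selection of diploids and sequencing of their barcodes. Each replicate has its own calibration line, from reference interactions of the BCL2 family. There are three technical replicates.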

Each scFv is VH, three GGGGS repeats, VL, as in the parent Ab-95, and differs from it in the CDRs of the light chain only.
VH: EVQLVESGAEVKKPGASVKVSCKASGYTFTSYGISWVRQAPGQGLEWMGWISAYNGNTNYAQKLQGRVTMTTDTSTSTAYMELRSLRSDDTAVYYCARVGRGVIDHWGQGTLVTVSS
VL: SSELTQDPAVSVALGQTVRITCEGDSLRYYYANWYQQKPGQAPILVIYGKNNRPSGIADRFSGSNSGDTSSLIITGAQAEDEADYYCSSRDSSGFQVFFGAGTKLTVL

The parent's light chain CDRs are EGDSLRYYYAN, GKNNRPS, SSRDSSGFQVF; each variant's own CDRs replace them letter for letter.
All variants listed here change A32 of the VL, counted from its first residue.
Values are apparent Kd, the geometric mean of the replicates that gave a signal; lower means stronger binding.
A pair that was not seen in any replicate is written "nd"; this usually means weak binding, but a binder can also be missed.
For reference, the parent read 200 nM as the reference entry and 180 nM as a member of this library.
Background: pairings of library AAYL52 with three empty control strains gave a value in 28% of cases (median 8.2 µM, 5th percentile 800 nM). Values in that range, when seen in few replicates, are hard to tell from nonspecific mating.

EGDSDRYYYCN, GKNNRRS, SSRDSSGFQVF: 2.7 µM (1 of 3 replicates).
PGDSLRYYYWN, GKNNRPS, SSRDSSGFQVV: 390 nM (3 of 3 replicates).
EGDSLRYYYQN, GKNNRPS, SSRDSGNFQVF: nd (0 of 3 replicates).
EPDSLRYYYLN, GKNNRPS, LSRDSSGFQVF: 11 µM (2 of 3 replicates).
EGDSLRYYQQN, GKNNRPS, SSRDSGGFQVF: 14 µM (3 of 3 replicates).
EGDSLRYKYFN, GKNNRPS, SCRDSSGFQVF: 1.0 µM (3 of 3 replicates).
EGDSLRYYYVN, GKNNRPS, SSRDSSGFNVQ: 16 µM (2 of 3 replicates).
EGDSLHYYYMN, GKNNRPS, SSRDSPGFQVF: nd (0 of 3 replicates).
EGDYLRYYYHN, GKNNRPP, SSRDSSGFQVF: nd (0 of 3 replicates).
EKDSLRYYYQN, GKNNRPS, SSRDSSGFQVF: 1.4 µM (3 of 3 replicates).
EGDSLRYYYEN, GKNNRPS, SSRDSSGFQVF: 16 µM (3 of 3 replicates).
EGDSLRLYYQN, GKNNRPS, QSRDSSGFQVF: 77 µM (2 of 3 replicates).
EGMSLRYYYCN, GKNNRPS, STRDSSGFQVF: nd (0 of 3 replicates).
EGDSLRYYYMN, GKNNRPS, SKRDSSGFQVF: 2.8 µM (2 of 3 replicates).
EGDSTRYYYWN, GKNNRPS, SSRTSSGFQVF: 2.2 µM (1 of 3 replicates).
NGDELRYYYTN, GKNNRPS, SSRDSSGFQVF: 3.8 µM (3 of 3 replicates).
EGDSLRYKYHN, GKNNRPS, SSRDSSTFQVF: 26 µM (1 of 3 replicates).
EGDSLRYYYWN, GKNNRPS, PSRDSSGFQVF: 1.4 µM (1 of 3 replicates).
EGDDLRYYYFN, GKNNRPS, SSRDSEGFQVF: nd (0 of 3 replicates).
EGDSLRYYYTN, GKNNRPS, SSRNSSCFQVF: 370 nM (3 of 3 replicates).
VGDSLRYYYGN, GKNNRPS, ISRDSSGFQVF: nd (0 of 3 replicates).
EGDSTRYYYGN, GKNNRPC, SSRDSSGFQVF: 340 µM (2 of 3 replicates).
EADSLKYYYYN, GKNNRPS, SSRDSSGFQVF: nd (0 of 3 replicates).
EGDSLRYYYCN, GKNNRPS, SSRNSSGFQVT: 630 µM (2 of 3 replicates).
EGDSLRYYYGN, GKNNRPS, SSRDSSGFQVF: 470 nM (3 of 3 replicates).
EGDSTRYYYEN, GKNSRPS, SSRDSSGFQVF: 9.6 µM (2 of 3 replicates).
EGDSLRYYYSN, GKNNRPS, SGNDSSGFQVF: 220 nM (3 of 3 replicates).
EGDSLRYYYNN, GKNANPS, SSRDSSGFQVF: 62 µM (1 of 3 replicates).
EGDSLRWYYRN, DKNNRPS, SSRDSSGFQVF: nd (0 of 3 replicates).
LGDSLRYYYLN, GKNNRPR, SSRDSSGFQVF: 11 µM (1 of 3 replicates).
EGDSLRFYYRN, GKNNRPS, SSKDSSGFQVF: nd (0 of 3 replicates).
EGDSGRYYYFN, GKNNWPS, SSRDSSGFQVF: 120 µM (2 of 3 replicates).
EGDSLRYYYFS, GKNNRPS, SSRDSSGFQVF: nd (0 of 3 replicates).
EGDSLRYYYHN, GKNNRPS, SSRDSNGFQVN: 46 µM (1 of 3 replicates).
EGDSLRYYYPN, CKNNRPS, SSMDSSGFQVF: 19 µM (2 of 3 replicates).
EGDSLRYYYGN, GKNTRPS, SSRDSSGCQVF: 7.2 µM (3 of 3 replicates).
EGDSLRYYYDN, GKNNRPS, SSRTSSGNQVF: 780 nM (1 of 3 replicates).

The opening 5 entries, copied out:

{"CDR-L1": "EGDSDRYYYCN", "CDR-L2": "GKNNRRS", "CDR-L3": "SSRDSSGFQVF", "apparent Kd": "2.7 µM", "replicates with signal": "1 of 3"}
{"CDR-L1": "PGDSLRYYYWN", "CDR-L2": "GKNNRPS", "CDR-L3": "SSRDSSGFQVV", "apparent Kd": "390 nM", "replicates with signal": "3 of 3"}
{"CDR-L1": "EGDSLRYYYQN", "CDR-L2": "GKNNRPS", "CDR-L3": "SSRDSGNFQVF", "apparent Kd": "nd", "replicates with signal": "0 of 3"}
{"CDR-L1": "EPDSLRYYYLN", "CDR-L2": "GKNNRPS", "CDR-L3": "LSRDSSGFQVF", "apparent Kd": "11 µM", "replicates with signal": "2 of 3"}
{"CDR-L1": "EGDSLRYYQQN", "CDR-L2": "GKNNRPS", "CDR-L3": "SSRDSGGFQVF", "apparent Kd": "14 µM", "replicates with signal": "3 of 3"}